According to patent US20160310613A1, “METHODS AND COMPOSITIONS FOR OVERCOMING DRUG-RESISTANCE IN CANCER BY TARGETED DELIVERY OF PRO-DRUG-NANO-POLYMERS” (priority 2015, published 2016):

Tests used:
H9C2 rat cardiomyocytes = conditions: H9C2, 24 h, highest concentration (30 μg/ml), FIG. 9
[1] = Zeta potential of agent-polymer conjugates; format: physicochemical; conditions: High Precision Mode
Procedure: Zeta potential of the agent-Polymer conjugates were taken using Zeta Plus (zeta potential analyzer) Brookhaven Instruments Corporation (Holtsville, N.Y.) equipped with a palladium electrode with acrylic support was used. BIC zetapw32 software was used and all the measurements were taken at 25° C. using High Precision Mode.

[2] = test system: SKOV-3 TR resistant Ovarian cancer cells; conditions: Paclitaxel resistant SKOV-3 TR cells
Procedure: Human ovarian cancer (SKOV-3 TR) resistant cells were cultured using the same protocol described for culturing SKOV-3 TR resistant cells in Example 8 above. Cultured cells (SKOV-3 TR) were incubated with bispecific anti-Her-2 Affibody-anti-DTPA antibody at a concentration of 20 μg/ml for 24 hours at 37° C. […] After 24-48 h incubation at 37° C., viability was assessed by Trypan Blue exclusion test using CellTiter Blue® (Promega, Madison, Wis.) following the manufacturer's protocol as described above in Example 8.
SKOV-3 sensitive and SKOV-3 TR resistant Ovarian cancer cells were cultured using the same protocol described in Examples 8 and 9 above. Cultured cells were incubated with bispecific anti-Her-2 Affibody-anti-DTPA antibody.

[3] = neutral pH (0.1 M phosphate buffer pH 7.4), 37° C., dialysis, 20 minutes up to 24 hours

## DTPA-Doxorubicin-Poly Glutamic acid [D-Dox-PGA]
H9C2 rat cardiomyocytes
  Cardiocyte toxicity compared to cells incubated with free drug: lower
[1]
  Zeta Potential at 25° C.: −11.475 mV

## DTPA-Paclitaxel-Poly Glutamic acid [D-PTXL-PGA]
[2]
  Cytotoxic effect relative to Paclitaxel delivered as free drug: higher cytotoxic effect and enhanced cell killing
[3]
  Paclitaxel associated with the polymers (stability): greater than 90%
H9C2 rat cardiomyocytes
  Cardiocyte toxicity compared to cells incubated with free drug: lower
[1]
  Zeta Potential at 25° C.: −15.754 mV
